One assay concerns the target T1, 5HT2 receptors (Rattus norvegicus, UniProt P14842).
T1 construct: their external jugular veins and thoracic aortas dissected free of connective tissue; from tissue; host or cells: external jugular vein of male Wistar rats
As to the kind of experiment: Antagonism of serotonin contraction in isolated rat jugular vein (apparent dissociation constant). In kind it is cell-based. Conditions: for Kb: rat jugular vein, agonist serotonin, antagonist incubated one hour, n in parentheses, read-out: 5HT2 -Log KB ± S.E. (converted). The protocol: (§1) The apparent dissociation constants (KB) are a measure of affinity for 5HT2 and alpha receptors and are expressed as the negative logarithm and are determined according to the following protocol.
Male Wistar rats (150-300 gram weight) were killed and their external jugular veins and thoracic aortas dissected free of connective tissue, cannulated in situ and placed in a modified Krebs' bicarbonate buffer in a suitable tissue bath. Two L-shaped 30-gauge stainless-steel hypodermic needles were inserted in each cannula and the dissected vessels gently pushed onto the needles. One needle was attached with thread to a stationary glass rod and the other to the transducer. [The procedure employed was that described by Hooker, Calkins and Fleisch, Blood Vessels, 14, 1, (1977) for use with circular smooth muscle preparations.]
(§2) The modified Krebs' bicarbonate buffer had the following makeup: (concentrations in millimoles): sodium chloride, 118.2; potassium chloride, 4.6; calcium chloride dihydrate, 1.6; potassium dihydrogenphosphate, 1.2; magnesium sulfate, 1.2; dextrose, 10.0; sodium bicarbonate, 24.8; and water q.s. to 1000 g. The tissue baths were maintained at 37° C. and were aerated with 95% oxygen-5% CO2. An initial optimum resting force of 1 and 4 g. was applied to the jugular vein and aorta, respectively. Isometric contractions were recorded as changes in grams of force on a Beckman Dynograph with Statham UC-3 transducers and microscale accessory attachment. Tissues were allowed to equilibrate 1 to 2 hours before exposure to drugs. […] Contraction to serotonin was evaluated in the jugular vein since this tissue produces marked responses to serotonin in the absence of alpha receptors--see Cohen and Wiley, J. Pharm. […] Alpha receptor antagonist activity was evaluated in the aorta.
Apparent antagonist dissociation constants were determined for each concentration of antagonist according to the following equation: [formula] wherein [B] is the concentration of the antagonist and the dose ratio is the ED50 of the agonist in the presence of the antagonist divided by the control ED50.

By UniProt entry, the sequences of proteins in these tests, tags left out.
UniProt P14842, whole entry: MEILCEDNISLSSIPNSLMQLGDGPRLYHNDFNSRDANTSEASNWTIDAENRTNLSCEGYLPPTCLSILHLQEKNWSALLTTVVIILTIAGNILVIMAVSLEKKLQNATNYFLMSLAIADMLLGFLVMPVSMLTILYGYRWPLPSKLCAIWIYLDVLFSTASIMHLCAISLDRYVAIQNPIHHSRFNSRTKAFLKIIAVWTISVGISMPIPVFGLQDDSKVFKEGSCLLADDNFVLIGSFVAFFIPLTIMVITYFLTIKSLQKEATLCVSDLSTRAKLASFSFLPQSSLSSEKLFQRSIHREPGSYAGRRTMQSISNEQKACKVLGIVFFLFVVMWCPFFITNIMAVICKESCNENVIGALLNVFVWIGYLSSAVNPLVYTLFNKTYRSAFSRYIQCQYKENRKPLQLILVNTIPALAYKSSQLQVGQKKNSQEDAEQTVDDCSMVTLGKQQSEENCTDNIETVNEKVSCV
UniProt P23944, whole entry: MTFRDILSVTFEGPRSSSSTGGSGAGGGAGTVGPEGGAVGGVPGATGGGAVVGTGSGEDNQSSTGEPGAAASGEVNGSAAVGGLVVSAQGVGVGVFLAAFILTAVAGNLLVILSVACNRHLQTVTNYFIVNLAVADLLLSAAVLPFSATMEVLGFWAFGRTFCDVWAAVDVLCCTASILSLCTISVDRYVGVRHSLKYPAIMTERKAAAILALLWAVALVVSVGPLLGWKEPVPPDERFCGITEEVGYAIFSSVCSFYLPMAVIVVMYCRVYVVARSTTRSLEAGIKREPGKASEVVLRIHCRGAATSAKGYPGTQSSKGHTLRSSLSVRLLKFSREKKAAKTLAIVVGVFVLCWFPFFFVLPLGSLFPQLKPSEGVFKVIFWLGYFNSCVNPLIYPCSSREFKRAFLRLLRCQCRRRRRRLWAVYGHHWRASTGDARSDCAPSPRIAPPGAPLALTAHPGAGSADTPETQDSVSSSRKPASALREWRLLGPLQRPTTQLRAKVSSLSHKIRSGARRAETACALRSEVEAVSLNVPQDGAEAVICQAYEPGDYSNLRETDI

The next assay has as its target T2, alpha receptors (Rattus norvegicus, UniProt P23944).
T2 construct: their external jugular veins and thoracic aortas dissected free of connective tissue; from tissue; host or cells: thoracic aorta of male Wistar rats
The experiment in a line: Antagonism of norepinephrine contraction in isolated rat aorta (apparent dissociation constant, dose ratio). The note with it: agonist norepinephrine, antagonist incubated one hour, n in parentheses, read-out: alpha -Log KB ± S.E. (converted). In kind it is cell-based. On the procedure: as §1
Male Wistar rats (150-300 gram weight) were killed and their external jugular veins and thoracic aortas dissected free of connective tissue, cannulated in situ and placed in a modified Krebs' bicarbonate buffer in a suitable tissue bath. Two L-shaped 30-gauge stainless-steel hypodermic needles were inserted in each cannula and the dissected vessels gently pushed onto the needles. One needle was attached with thread to a stationary glass rod and the other to the transducer. […]
as §2, with “The tissue baths were maintained at 37° C. and were aerated with 95% oxygen-5% CO2. An initial optimum resting force of 1 and 4 g. was applied to the jugular vein and aorta, respectively.” left out, “attachment.” for “attachment. Tissues were allowed to equilibrate 1 to 2 hours before exposure to drugs.”, “aorta. […]” for “aorta.”

The values that follow come from patent publication US4563461A, “Selective method for blocking 5HT2 receptors” (Eli Lilly and Company, priority 1983, dated 1986).

Usually Kb stands for the affinity of an antagonist, worked out from how it opposes an agonist.

With `O=C(CCCN1CCC2(CC1)C(=O)NCN2c1ccccc1)c1ccc(F)cc1` [Spiperone], the Kb at 5HT2 receptors is 0.0794 nM; on alpha receptors, 0.1 ± 0.0009 nM.
In the case of `O=c1n(CCCN2CCN(c3cccc(Cl)c3)CC2)nc2ccccn12` [Trazodone], the “Ratio KB alpha / KB 5HT2” value at 5HT2 receptors (rat aorta KB over rat jugular vein KB) was determined as 79. Besides, at 5HT2 receptors, the Kb was 2 nM.
